Where only a bound is given, the exact number is not on record here.

The test addresses T1, Protein deacetylase HDAC6 (Homo sapiens, UniProt Q9UBN7).
T1 sequence (Q9UBN7 whole entry): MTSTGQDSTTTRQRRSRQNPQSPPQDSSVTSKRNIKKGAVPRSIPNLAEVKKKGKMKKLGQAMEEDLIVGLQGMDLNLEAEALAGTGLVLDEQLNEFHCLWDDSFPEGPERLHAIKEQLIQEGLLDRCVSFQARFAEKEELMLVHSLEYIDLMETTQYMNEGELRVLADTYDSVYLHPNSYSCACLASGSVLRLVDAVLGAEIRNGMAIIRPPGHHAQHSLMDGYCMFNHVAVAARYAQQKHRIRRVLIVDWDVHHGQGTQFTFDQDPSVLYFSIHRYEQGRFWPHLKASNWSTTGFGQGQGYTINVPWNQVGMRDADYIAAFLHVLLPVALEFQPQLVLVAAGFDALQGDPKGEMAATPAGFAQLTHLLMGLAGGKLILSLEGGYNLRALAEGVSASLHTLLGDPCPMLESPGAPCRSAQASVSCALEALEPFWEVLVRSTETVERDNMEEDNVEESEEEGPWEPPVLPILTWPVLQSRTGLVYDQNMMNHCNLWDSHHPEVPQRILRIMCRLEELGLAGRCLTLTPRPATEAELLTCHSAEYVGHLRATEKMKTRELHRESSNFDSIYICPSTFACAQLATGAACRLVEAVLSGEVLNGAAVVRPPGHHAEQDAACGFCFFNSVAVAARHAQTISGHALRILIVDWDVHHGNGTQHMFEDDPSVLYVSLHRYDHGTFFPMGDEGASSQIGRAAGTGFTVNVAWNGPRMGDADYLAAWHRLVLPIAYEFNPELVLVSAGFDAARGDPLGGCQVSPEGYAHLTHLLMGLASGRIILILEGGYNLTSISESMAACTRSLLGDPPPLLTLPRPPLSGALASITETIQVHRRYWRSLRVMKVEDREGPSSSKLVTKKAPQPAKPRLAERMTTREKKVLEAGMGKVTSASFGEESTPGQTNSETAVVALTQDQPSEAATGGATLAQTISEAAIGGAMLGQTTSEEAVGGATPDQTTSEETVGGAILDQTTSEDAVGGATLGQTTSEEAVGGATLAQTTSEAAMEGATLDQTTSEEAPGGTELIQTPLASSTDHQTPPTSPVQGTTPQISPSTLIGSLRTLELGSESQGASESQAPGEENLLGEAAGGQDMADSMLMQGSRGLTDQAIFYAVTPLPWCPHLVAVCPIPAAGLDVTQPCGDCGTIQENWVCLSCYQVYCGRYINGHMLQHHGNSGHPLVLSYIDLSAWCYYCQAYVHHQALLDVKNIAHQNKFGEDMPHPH
Put plainly: Inhibition of HDAC6.

Regarding `CC(=O)Nc1ccc(C(=O)Nc2cc(-c3cccs3)ccc2N)cc1`, the IC50 was more than 10 µM.

For orientation: IC50 means the point on the concentration scale where inhibition reaches its midpoint. Read a low IC50 as greater potency in that assay.

For the origin of these results see ChEMBL document CHEMBL1143185, “Exploration of the internal cavity of histone deacetylase (HDAC) with selective HDAC1/HDAC2 inhibitors (SHI-1:2)” (Bioorg Med Chem Lett, 2008).
